Screening results from PubChem BioAssay.
Only some compounds are listed: those with a hit (about 1.6% of all), similar ones and a draw of the others.
CAL PDZ FP-1 = blocks peptide binding to the human CAL PDZ domain. purified CAL PDZ, TMR-peptide fluorescence polarization, 1 h. inhibition, % at 24.9 µM. 300,000 compounds, 0.92% hits. AID 602252;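 active = mean inhibition of at least 30% with at least half of replicates also reaching 30%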;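 note: 0% = DMSO neutral control and 100% = excess unlabeled competitor peptide PRC23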
CAL PDZ FP-2 = blocks peptide binding to human CAL PDZ domain; 330,000 compounds, 0.02% hits; Q9HD26; purified CAL PDZ, TMR-peptide fluorescence polarization, 1 h; inhibition, % at 20 µM;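 active = highest replicate inhibition of at least 40%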;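 note: plate controls were DMSO neutral control wells for no effect and unlabeled competitor peptide control wells for full effect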
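Material: tagged CAL PDZ domain; buffer or medium: 25 mM sodium phosphate pH 7.4, 150 mM NaCl, TCEP, IgG, Thesit; compound dosing: single point, 20 µM; schedule: 1 h incubation at room temperature before polarization reading; measured by: FP readout, S and P plane fluorescence; read-out basis: percent inhibition from loss of millipolarization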
ARNT-TACC3 inh = disruptors of human ARNT/TACC3 interaction; AlphaScreen His-ARNT PAS-B/GST-TACC3 binding, luminescence; TACC3 fragment carries E629A point mutation; AID 623870; inhibition, % at 9.99 µM; Q9Y6A5; 390,000 compounds, 0.66% hits;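 active = mean inhibition of replicates at least 50% and at least half of replicates each reaching 50%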;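 note: 0% = complete ARNT plus TACC3 wells and 100% = ARNT alone without TACC3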
Vif imaging = inhibitors of HIV Vif; AID 602346; inhibition, % at 7.49 µM; HEK293T cells, Vif self-association by quenched fluorescence, imaging, 24 h; 340,000 compounds, 0.35% hits; in the data active = inhibition above about 50%, passing the limit was not always enough
PglD inh = blocks C. jejuni PglD acetyltransferase activity | 360,000 compounds, 0.098% hits | purified PglD enzyme, DTNB colorimetric CoA detection | AID 602405 | inhibition, % at 12.5 µM; in the data active = inhibition above about 16%, passing the limit was not always enough
Yeast UUG start = alters start codon recognition fidelity in yeast. S. cerevisiae UUG-firefly luciferase reporter, luminescence/redox ratio. activity score, % at 18.7 µM. 0.13% of 350,000 active. AID 602363;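 active = replicate mean at a twofold rise or more, about +100% in these data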;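 also: firefly luciferase made from a UUG start codon reports start codon fidelity; reporter light over untreated wells divided by growth signal over untreated wells; some hits fall short of that in this replicate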
Active calls of the source: *; i = inactive; x = not tested or not shown.

nr	smiles	CAL PDZ FP-1	CAL PDZ FP-2	ARNT-TACC3 inh
1	Cc1ccc(O)c(-c2cc(-c3cccc(Br)c3)n[nH]2)c1	86*	0	-3
2	CO[C@@H]1CN(C)C(=O)c2cc(NC(=O)C3CC3)ccc2OC[C@@H](C)N(C(=O)c2ccccc2)C[C@H]1C	x	x	-6
3	N#C/C(=C\c1ccc(N2CCOCC2)o1)C(=O)NCC1CCCO1 (stereo not drawn)	-1	-3	0
4	N#C/C(=C\c1ccc(N2CCOCC2)o1)C(=O)NC1CCCCC1	-5	1	2
5	COc1ccc(S(=O)(=O)Nc2ccc3c(c2)C(=O)N([C@@H](C)CO)C[C@H](C)[C@H](CN(C)S(C)(=O)=O)O3)cc1	x	x	x
6	Cc1nc(C)c(C(=O)N2CCCC(CCC(=O)NCc3ccc(F)c(F)c3)C2)s1 (stereo not drawn)	x	-2	2
7	CCc1noc(C)c1C(=O)N1CCCC(CCC(=O)NCc2ccc(F)c(F)c2)C1 (stereo not drawn)	71*	22	11
8	COc1ccc(S(=O)(=O)Nc2ccc3c(c2)C(=O)N([C@H](C)CO)C[C@H](C)[C@H](CN(C)C(=O)NC2CCCCC2)OCCCC[C@H](C)O3)cc1	x	x	-3
9	COC(=O)Cc1ccc(NC(=S)Nc2cccc(C)n2)cc1	53*	-2	2
10	Cc1cccc(NC(=O)Nc2ccc(Cl)cc2)n1	40*	-1	-15
11	CN1C(=O)c2cc(NC(=O)c3ccccc3)ccc2OC[C@@H]2O[C@@H](CC(=O)NCC3CC3)CC[C@H]21	x	x	-2
12	COc1cccc(/C=N/NC(=S)Nc2cccnc2)c1	-2	10	3

nr	Vif imaging	PglD inh	Yeast UUG start
1	2	-6	-12
2	x	-4	4
3	111*	x	x
4	i	-2	12
5	x	3	-12
6	4	x	x
7	7	x	x
8	x	-5	-12
9	-5	x	x
10	-3	-1	-15
11	x	-2	6
12	12	1	-29

Copied from above, entries 1 to 2
nr	smiles	CAL PDZ FP-1	CAL PDZ FP-2	ARNT-TACC3 inh
1	Cc1ccc(O)c(-c2cc(-c3cccc(Br)c3)n[nH]2)c1	86*	0	-3
2	CO[C@@H]1CN(C)C(=O)c2cc(NC(=O)C3CC3)ccc2OC[C@@H](C)N(C(=O)c2ccccc2)C[C@H]1C	x	x	-6

nr	Vif imaging	PglD inh	Yeast UUG start
1	2	-6	-12
2	x	-4	4

New compounds follow.
nr	smiles	CAL PDZ FP-1	CAL PDZ FP-2	ARNT-TACC3 inh
13	COc1ccc(O)c(/C=N/NC(=S)Nc2cccc(S(=O)(=O)N(C)C)c2)c1	-4	1	65*
14	CN(C)S(=O)(=O)c1cccc(NC(=S)N/N=C/c2ccc(O)c(O)c2O)c1	2	-3	69*
15	COc1cc(/C=N/NC(=S)Nc2cccc(S(=O)(=O)N(C)C)c2)cc(OC)c1O	24	0	12
16	COc1ccc(O)c(/C=N/NC(=S)Nc2cccnc2)c1	-5	0	67*
17	C[C@@H]1CCCCO[C@@H](CN(C)S(=O)(=O)c2ccccc2)[C@@H](C)CN([C@@H](C)CO)C(=O)c2cc(NC(=O)CCCN(C)C)ccc2O1	x	x	-6
18	COc1ccc(C(=O)Nc2ccc3c(c2)C(=O)N(C)C[C@@H](OC)[C@H](C)CN(C(=O)C2CC2)[C@H](C)CO3)cc1	x	x	-3
19	CC(/C=N/n1c(-c2ccccn2)n[nH]c1=S)=C\c1ccccc1	x	x	x
20	S=c1[nH]nc(-c2ccccc2)n1/N=C/c1ccc(Cl)cc1	-2	0	8
21	S=c1[nH]nc(-c2ccccn2)n1/N=C/c1cccc2ccccc12	-4	-2	56*
22	S=c1[nH]nc(-c2ccccn2)n1/N=C/c1cccs1	x	-1	59*
23	Cc1ccc(/C=N/n2c(-c3ccccn3)n[nH]c2=S)o1	-4	1	91*
24	S=c1[nH]nc(-c2ccccn2)n1/N=C/c1ccc(Cl)cc1	2	1	77*

nr	Vif imaging	PglD inh	Yeast UUG start
13	-11	-1	-25
14	-12	-1	-31
15	4	-1	-19
16	6	x	x
17	x	2	40
18	x	2	x
19	-1	8	-23
20	-7	8	-18
21	x	x	x
22	3	x	x
23	-7	x	x
24	-3	x	x

Following part.
nr	smiles	CAL PDZ FP-1	CAL PDZ FP-2	ARNT-TACC3 inh
25	C[C@@H]1CCCCO[C@@H](CN(C)S(=O)(=O)c2ccccc2)[C@@H](C)CN([C@@H](C)CO)C(=O)c2cc(NC(=O)c3ccncc3)ccc2O1	x	x	-1
26	N#C[C@H]1[C@@H](c2ccc(C#Cc3ccccc3F)cc2)[C@@H](CO)N1C(=O)C1CC1	x	x	6
27	C[C@H](CO)N1C[C@H](C)[C@H](CN(C)C(=O)Nc2ccccc2)Oc2ncc(C#CCN(C)C)cc2C1=O	x	x	-3
28	S=c1[nH]nc(-c2ccccn2)n1/N=C/c1ccccc1	x	0	57*
29	Cc1ccccc1/C=N/n1c(-c2cc(-c3ccccc3)n[nH]2)n[nH]c1=S	x	-1	-8
30	S=c1[nH]nc(-c2ccccn2)n1/N=C/c1c(Cl)cccc1Cl	6	0	79*
31	Cc1ccccc1/C=N/n1c(-c2ccccn2)n[nH]c1=S	-6	-1	71*
32	COc1ccccc1/C=C/C=N/n1c(-c2ccccn2)n[nH]c1=S	-4	0	65*
33	NC(=O)NC(CC(=O)NNC(=O)c1ccccn1)c1ccccc1Cl (stereo not drawn)	109*	1	31
34	COCC(=O)Nc1ccc2c(c1)C(=O)N(C)[C@@H]1CC[C@H](CC(=O)Nc3cn(C)nc3C)O[C@H]1CO2	x	x	-2
35	Cc1cccc(/C=C/C(=O)c2ccc([N+](=O)[O-])o2)c1	-4	0	-31
36	O=C(Nc1ccc2c(c1)OCO2)N[C@@H]1CC[C@@H](CCNC(=O)C2CCOCC2)O[C@@H]1CO	x	x	-3

nr	Vif imaging	PglD inh	Yeast UUG start
25	x	2	20
26	x	0	15
27	x	-5	22
28	1	x	x
29	-1	x	x
30	-2	x	x
31	6	2	-12
32	-3	-3	-20
33	-7	4	-34
34	x	8	-23
35	62*	2	-18
36	x	-1	-3

More records.
nr	smiles	CAL PDZ FP-1	CAL PDZ FP-2	ARNT-TACC3 inh
37	O=C(O)c1ccc(N=Nc2c(O)ccc3ncccc23)cc1	2	-1	62*
38	C[C@@H]1CN([C@H](C)CO)C(=O)Cc2cc(NS(=O)(=O)c3ccccc3)ccc2O[C@H]1CN(C)C(=O)NC1CCCCC1	x	x	1
39	COCC(C)n1c(C)cc(C(=O)COC(=O)c2nn(C)c(=O)c3ccccc23)c1C (stereo not drawn)	0	-2	x
40	COCC(C)n1c(C)cc(C(=O)Cn2nc(C(=O)O)c3ccccc3c2=O)c1C (stereo not drawn)	37*	-1	0
41	C[C@H](CO)N1C[C@H](C)[C@H](CN(C)S(=O)(=O)c2cccs2)Oc2ncccc2C1=O	x	x	-1
42	CO[C@H]1CN(C)C(=O)c2cc(NS(C)(=O)=O)ccc2OC[C@@H](C)N(CC2CCOCC2)C[C@H]1C	x	x	-5
43	COc1ccccc1NC(=O)/C(=C\c1cccnc1)NC(=O)c1ccccc1	-1	-1	-3
44	COc1ccccc1NC(=O)/C(=C\c1cccnc1)NC(=O)c1ccc(C)cc1	42*	-1	x
45	CCOc1ccc(C(C(=O)NCC2CCCO2)N(Cc2ccccc2)C(=O)c2snc(C(N)=O)c2N)cc1 (stereo not drawn)	88*	0	0
46	CCOc1ccc(C(C(=O)NCC2CCCO2)N(Cc2cccc(OC)c2)C(=O)c2snc(C(N)=O)c2N)cc1 (stereo not drawn)	-2	-2	-3

nr	Vif imaging	PglD inh	Yeast UUG start
37	-23	0	-46
38	x	1	4
39	-14	-2	-2
40	4	-1	-2
41	x	0	-11
42	x	1	11
43	0	1	-16
44	5	-2	0
45	-12	-4	-25
46	-6	5	9

A different layout for some results above.
| no. | molecule | CAL PDZ FP-1 | CAL PDZ FP-2 | ARNT-TACC3 inh | Vif imaging | PglD inh | Yeast UUG start |
| --- | --- | --- | --- | --- | --- | --- | --- |
| 41 | C[C@H](CO)N1C[C@H](C)[C@H](CN(C)S(=O)(=O)c2cccs2)Oc2ncccc2C1=O | x | x | -1 | x | 0 | -11 |
| 37 | O=C(O)c1ccc(N=Nc2c(O)ccc3ncccc23)cc1 | 2 | -1 | 62* | -23 | 0 | -46 |
